Results on 10 substances are retold here after article PMC8405998, “Catalytic mechanism of ancestral L-lysine oxidase assigned by sequence data mining” (The Journal of Biological Chemistry, 2021).

This series has as its system NCCCC[C@H](N)C(=O)O. Put plainly: purified protein. The conditions noted are these: 100 mM Bis-Tris-HCl pH 7.0, O2 as co-substrate.

In general, Km refers to the substrate concentration at which the rate is half of its maximum. A word on the kcat: it is the maximal rate divided by the concentration of active sites. One may read the kcat/Km as the turnover number divided by the Michaelis constant.

Take AncLLysO (synthetic construct; Y255A): the Km came to 4400 ± 300 µM, the kcat amounted to 0.21 s⁻¹ and the specificity constant (kcat/Km) stood at 50 M⁻¹ s⁻¹.
For AncLLysO (synthetic construct; G253A), in that order: 1700 ± 300 µM, 10.4 s⁻¹ and 6100 M⁻¹ s⁻¹.
For AncLLysO (synthetic construct; Y255F), in that order: 150 ± 20 µM, 3.4 s⁻¹ and 22600 M⁻¹ s⁻¹.
Taken in the same sequence, the figures for AncLLysO (synthetic construct; Y518A) were 4100 ± 300 µM, 1.4 s⁻¹ and 340 M⁻¹ s⁻¹.
In the case of AncLLysO (synthetic construct; G253P), the Michaelis constant (Km) was found to be 11300 ± 1300 µM, the kcat amounted to 1.1 s⁻¹ and the specificity constant (kcat/Km) stood at 90 M⁻¹ s⁻¹.
For AncLLysO (synthetic construct; Y256A), the Michaelis constant (Km) is 3000 ± 500 µM, the turnover number (kcat) was 6 s⁻¹ and the kcat/Km was 2000 M⁻¹ s⁻¹.
Taken in the same sequence, the figures for AncLLysO (synthetic construct; Y270F) were 1000 ± 200 µM, 13.5 s⁻¹ and 13500 M⁻¹ s⁻¹.
As to AncLLysO (synthetic construct; Y256F), the Km was 600 ± 80 µM, the catalytic constant (kcat) stood at 15 s⁻¹ and the specificity constant (kcat/Km) turned out to be 25000 M⁻¹ s⁻¹.
For AncLLysO (synthetic construct; Y518F), in that order: 200 ± 30 µM, 9.3 s⁻¹ and 46500 M⁻¹ s⁻¹.
Taken in the same sequence, the figures for AncLLysO (synthetic construct) were 300 ± 30 µM, 21.7 s⁻¹ and 72300 M⁻¹ s⁻¹.
